Here are results for four compounds from ChEMBL document CHEMBL1124775 (J Med Chem, 1990).

Data set [1] relates to Rattus norvegicus. Kind of data set: In vivo binding specificity the compound in rat striatum at 30 min of intravenous injection.
The test system of data set [2] is Rattus norvegicus. Kind of data set: In vivo binding specificity the compound in rat striatum at 60 min of intravenous injection.
The test system of data set [3] is Rattus norvegicus. The experiment in a line: In vivo binding specificity the compound in rat cerebellum at 30 min of intravenous injection.
Data set [4] has as its system Rattus norvegicus. The experiment in a line: In vivo binding specificity the compound in rat cerebellum at 60 min of intravenous injection.
The nature of data set [5]: Specificity of binding in vivo was measured as the ratio of activity localized in the striatum (percent injected dose/gram) to that localized in the cerebellum (percent injected dose/gram) at 30 min.
The nature of data set [6]: Specificity of binding in vivo was measured as the ratio of activity localized in the striatum (percent injected dose/gram) to that localized in the cerebellum (percent injected dose/gram) at 60 min.
For data set [7], the species on record is Rattus norvegicus. Kind of data set: Binding of [3H]diprenorphine to rat brain membranes was evaluated and the dissociation constant (KD) was determined. Also on record: species or system Membrane.
Data set [8] is described as follows: The association rate constant (K1) was determined.
A short description of data set [9]: The dissociation rate constant (K-1) was determined.
For data set [10], the species on record is Rattus norvegicus. Kind of data set: Binding of [3H]diprenorphine to rat striatal membranes was evaluated and the dissociation constant (KD) was determined. Conditions: Striatum.

In the case of `CO[C@]12CC[C@@]3(C[C@@H]1C(C)(C)O)[C@H]1Cc4ccc(O)c5c4[C@@]3(CCN1C[C@H](C)C[18F])[C@H]2O5.Cl`, the ID (per g of tissue) was determined as 0.198% in data set [1], 0.068% in data set [2], 0.176% in [3] and 0.062% in [4]. For the same compound, the Ratio was found to be 1.15 in [5] and 1.13 in [6].

For `CO[C@]12CC[C@@]3(C[C@@H]1C(C)(C)O)[C@H]1Cc4ccc(O)c5c4[C@@]3(CCN1CC[18F])[C@H]2O5`, the ID (per g of tissue) in [1] amounted to 0.103%; in [2], 0.041%; in data set [3], 0.087%; in data set [4], 0.037%. Further, the Ratio in data set [5] was 1.21; in data set [6], 1.06.

As to `[3H]C1[C@H](C(C)(C)O)[C@]2(OC)CC[C@]13[C@H]1Cc4ccc(O)c5c4[C@@]3(CCN1CC1CC1)[C@H]2O5` (some centres not stated), the results for the Kd in data set [7] and in data set [10] were 0.047 nM and 0.046 nM, respectively. The same compound registered a K1 in data set [8] of 0.5 min⁻¹. In data set [9], this compound yielded a K-1 of 0.000533 s⁻¹.

On to `CO[C@]12CC[C@@]3(C[C@@H]1C(C)(C)O)[C@H]1Cc4ccc(O)c5c4[C@@]3(CCN1CC1CC1)[C@H]2O5`, for which, in data set [7], the Kd worked out at 1 nM.

By Kd is commonly meant a measure of binding affinity in units of concentration. Read a high Kd as weaker binding.
